Data taken from patent publication US11065253B2, “Arylquinazolines” (Merck Patent GmbH, priority 2013, dated 2021).

System: phospho-serine 2056 DNA-PK in HCT116 cells
Assay: DNA-PK phosphorylation at serine 2056 (cellular), ELISA in bleomycin-treated HCT116 cells
Type: cell-based
Conditions: class symbols A-D, read-out: IC50 pDNA-PK
Experimental: HCT116 cells were cultivated at 37° C. and 10% CO2 in MEM alpha medium with 10% of foetal calf serum and 2 mM glutamine. The cells were detached from the base of the culture vessels with the aid of trypsin/EDTA, centrifuged off in centrifuge tubes, taken up in fresh medium, and the cell density was determined. 100,000 cells were sown in 1 ml of culture medium per cavity of a 24-well cell culture plate and cultivated overnight. Next day, 10 μM bleomycin (DNA intercalator and inductor of DNA double-strand breaks) and test substances in fresh culture medium were added to the cells, and these were cultivated for a further six hours. […] The 96-well ELISA plates were subsequently treated with a detection antibody (Abcam ab79444: total DNA-PK) and a streptavidin-HRP conjugate. The development of the enzymatic reaction was carried out with the aid of a chemiluminescent reagent, the chemiluminescence was measured with the aid of a Mithras LB940. The signals with the phospho-DNA-PK-specific antibody were standardised to the signal with the antibody against the total protein DNA-PKc. […] The DMSO control was used as blank.

IC50: < 0.5 µM
Compound: COc1ccc(C(O)c2cc(-c3ncnc4cc(N5CCOCC5)ccc34)c(F)cc2F)nn1 (stereo not shown) [Example 130, [2,4-Difluoro-5-(7-morpholin-4-yl-quinazolin-4-yl)-phenyl]-(6-methoxy-pyridazin-3-yl)-methanol]
